The values that follow come from ChEMBL document CHEMBL3774335, “Tactical Approaches to Interconverting GPCR Agonists and Antagonists” (J Med Chem, 2016).

By UniProt entry, the sequences of proteins in these tests, tags left out. Where a name states a change or a piece, a line headed by the entry shows the natural chain unless it says otherwise.
UniProt P41145: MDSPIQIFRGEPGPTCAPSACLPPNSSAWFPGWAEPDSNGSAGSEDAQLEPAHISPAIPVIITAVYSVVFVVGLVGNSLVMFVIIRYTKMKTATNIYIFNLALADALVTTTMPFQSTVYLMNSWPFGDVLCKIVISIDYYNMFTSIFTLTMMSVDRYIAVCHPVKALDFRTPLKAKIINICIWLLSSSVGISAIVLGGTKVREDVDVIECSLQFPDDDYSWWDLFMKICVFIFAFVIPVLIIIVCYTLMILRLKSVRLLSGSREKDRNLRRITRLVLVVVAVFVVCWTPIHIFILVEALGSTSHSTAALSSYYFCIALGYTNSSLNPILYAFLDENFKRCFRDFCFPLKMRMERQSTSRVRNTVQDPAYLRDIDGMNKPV

A word on the Ki: it is a dissociation constant, usually derived from enzyme kinetics or from competition with a known ligand. Read a low Ki as higher affinity.

For the experiment, the target named is Kappa-type opioid receptor (Homo sapiens, UniProt P41145). As to the kind of experiment: Binding affinity to human kappa opioid receptor.

In turn, `C=CCN1CC[C@]23c4c5ccc(O)c4O[C@H]2[C@@H](O)C=C[C@H]3[C@H]1C5` came in with a Ki of 2 nM.
